Literature values as cited in article PMC6353895, “A C-terminal cysteine residue is required for peptide-based inhibition of the NGF/TrkA interaction at nM concentrations: implications for peptide-based analgesics” (Scientific Reports, 2019).

Tested on: NGF
Conditions: cited from earlier work
Excerpt: Since increased levels of NGF have been implicated in a number of pain states, including inflammatory and neuropathic pain[8], neurogenic overactive bladder and interstitial cystitis[9],[10], prostatitis, asthma[12] and cancer-induced bone pain[13], interest has focussed on creating novel analgesics by inhibiting the NGF/TrkA interaction. […] However to date, the most common NGF/TrkA intervention strategies have involved sequestering NGF with monoclona ...

## Tanezumab: humanized IgG2 monoclonal antibody that binds NGF
  Binding to NGF: binds with high affinity and specificity to NGF
